Experimental findings from ChEMBL document CHEMBL5715260, “Selectivity Literature for EUbOPEN Chemogenomic Library” (2024) are described below.

This experiment addresses T1, Bromodomain and PHD finger-containing protein 3 (Homo sapiens) (UniProt Q9ULD4).
T1 sequence (whole entry): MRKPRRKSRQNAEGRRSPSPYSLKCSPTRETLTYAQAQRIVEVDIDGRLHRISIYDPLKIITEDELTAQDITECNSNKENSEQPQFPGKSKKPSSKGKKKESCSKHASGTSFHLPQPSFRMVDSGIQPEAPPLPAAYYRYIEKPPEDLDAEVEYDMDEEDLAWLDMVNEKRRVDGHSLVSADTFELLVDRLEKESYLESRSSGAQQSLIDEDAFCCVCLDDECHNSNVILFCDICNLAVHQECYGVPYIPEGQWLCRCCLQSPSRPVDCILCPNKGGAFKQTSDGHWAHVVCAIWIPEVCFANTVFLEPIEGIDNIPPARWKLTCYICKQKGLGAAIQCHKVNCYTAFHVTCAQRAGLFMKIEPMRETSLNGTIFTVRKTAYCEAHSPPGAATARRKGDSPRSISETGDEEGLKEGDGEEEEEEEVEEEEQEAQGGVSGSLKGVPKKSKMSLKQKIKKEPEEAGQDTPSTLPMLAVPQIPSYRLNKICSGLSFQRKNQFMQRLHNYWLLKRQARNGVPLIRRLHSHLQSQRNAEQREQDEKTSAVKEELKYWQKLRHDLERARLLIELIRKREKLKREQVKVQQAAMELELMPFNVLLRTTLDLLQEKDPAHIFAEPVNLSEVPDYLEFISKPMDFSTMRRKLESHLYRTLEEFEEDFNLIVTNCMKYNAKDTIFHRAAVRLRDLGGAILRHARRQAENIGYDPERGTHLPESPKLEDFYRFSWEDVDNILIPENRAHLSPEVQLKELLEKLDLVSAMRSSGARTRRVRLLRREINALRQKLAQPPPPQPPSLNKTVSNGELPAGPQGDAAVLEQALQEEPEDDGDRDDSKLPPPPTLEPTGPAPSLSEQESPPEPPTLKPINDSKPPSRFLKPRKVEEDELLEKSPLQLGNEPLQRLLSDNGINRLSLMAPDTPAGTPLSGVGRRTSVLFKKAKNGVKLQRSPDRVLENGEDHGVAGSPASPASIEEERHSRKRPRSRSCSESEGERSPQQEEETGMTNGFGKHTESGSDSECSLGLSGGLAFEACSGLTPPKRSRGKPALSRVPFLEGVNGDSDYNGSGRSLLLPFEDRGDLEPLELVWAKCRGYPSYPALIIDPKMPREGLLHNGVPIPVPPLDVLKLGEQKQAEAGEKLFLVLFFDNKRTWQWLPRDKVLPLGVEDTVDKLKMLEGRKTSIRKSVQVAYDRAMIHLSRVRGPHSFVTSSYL

By ΔTm is commonly meant the shift of the melting midpoint relative to a reference. With `COc1cc2c(cc1NS(=O)(=O)c1ccc(Br)cc1C)n(C)c(=O)n2C`, the ΔTm was found to be 3.3 °C.
